The target of the assay is YFP-tagged CREB-binding protein (UniProt Q92793). Briefly: MST.

Protein sequences, listed by entry. Tags and fused reporters are not part of them.
UniProt Q92793, whole entry: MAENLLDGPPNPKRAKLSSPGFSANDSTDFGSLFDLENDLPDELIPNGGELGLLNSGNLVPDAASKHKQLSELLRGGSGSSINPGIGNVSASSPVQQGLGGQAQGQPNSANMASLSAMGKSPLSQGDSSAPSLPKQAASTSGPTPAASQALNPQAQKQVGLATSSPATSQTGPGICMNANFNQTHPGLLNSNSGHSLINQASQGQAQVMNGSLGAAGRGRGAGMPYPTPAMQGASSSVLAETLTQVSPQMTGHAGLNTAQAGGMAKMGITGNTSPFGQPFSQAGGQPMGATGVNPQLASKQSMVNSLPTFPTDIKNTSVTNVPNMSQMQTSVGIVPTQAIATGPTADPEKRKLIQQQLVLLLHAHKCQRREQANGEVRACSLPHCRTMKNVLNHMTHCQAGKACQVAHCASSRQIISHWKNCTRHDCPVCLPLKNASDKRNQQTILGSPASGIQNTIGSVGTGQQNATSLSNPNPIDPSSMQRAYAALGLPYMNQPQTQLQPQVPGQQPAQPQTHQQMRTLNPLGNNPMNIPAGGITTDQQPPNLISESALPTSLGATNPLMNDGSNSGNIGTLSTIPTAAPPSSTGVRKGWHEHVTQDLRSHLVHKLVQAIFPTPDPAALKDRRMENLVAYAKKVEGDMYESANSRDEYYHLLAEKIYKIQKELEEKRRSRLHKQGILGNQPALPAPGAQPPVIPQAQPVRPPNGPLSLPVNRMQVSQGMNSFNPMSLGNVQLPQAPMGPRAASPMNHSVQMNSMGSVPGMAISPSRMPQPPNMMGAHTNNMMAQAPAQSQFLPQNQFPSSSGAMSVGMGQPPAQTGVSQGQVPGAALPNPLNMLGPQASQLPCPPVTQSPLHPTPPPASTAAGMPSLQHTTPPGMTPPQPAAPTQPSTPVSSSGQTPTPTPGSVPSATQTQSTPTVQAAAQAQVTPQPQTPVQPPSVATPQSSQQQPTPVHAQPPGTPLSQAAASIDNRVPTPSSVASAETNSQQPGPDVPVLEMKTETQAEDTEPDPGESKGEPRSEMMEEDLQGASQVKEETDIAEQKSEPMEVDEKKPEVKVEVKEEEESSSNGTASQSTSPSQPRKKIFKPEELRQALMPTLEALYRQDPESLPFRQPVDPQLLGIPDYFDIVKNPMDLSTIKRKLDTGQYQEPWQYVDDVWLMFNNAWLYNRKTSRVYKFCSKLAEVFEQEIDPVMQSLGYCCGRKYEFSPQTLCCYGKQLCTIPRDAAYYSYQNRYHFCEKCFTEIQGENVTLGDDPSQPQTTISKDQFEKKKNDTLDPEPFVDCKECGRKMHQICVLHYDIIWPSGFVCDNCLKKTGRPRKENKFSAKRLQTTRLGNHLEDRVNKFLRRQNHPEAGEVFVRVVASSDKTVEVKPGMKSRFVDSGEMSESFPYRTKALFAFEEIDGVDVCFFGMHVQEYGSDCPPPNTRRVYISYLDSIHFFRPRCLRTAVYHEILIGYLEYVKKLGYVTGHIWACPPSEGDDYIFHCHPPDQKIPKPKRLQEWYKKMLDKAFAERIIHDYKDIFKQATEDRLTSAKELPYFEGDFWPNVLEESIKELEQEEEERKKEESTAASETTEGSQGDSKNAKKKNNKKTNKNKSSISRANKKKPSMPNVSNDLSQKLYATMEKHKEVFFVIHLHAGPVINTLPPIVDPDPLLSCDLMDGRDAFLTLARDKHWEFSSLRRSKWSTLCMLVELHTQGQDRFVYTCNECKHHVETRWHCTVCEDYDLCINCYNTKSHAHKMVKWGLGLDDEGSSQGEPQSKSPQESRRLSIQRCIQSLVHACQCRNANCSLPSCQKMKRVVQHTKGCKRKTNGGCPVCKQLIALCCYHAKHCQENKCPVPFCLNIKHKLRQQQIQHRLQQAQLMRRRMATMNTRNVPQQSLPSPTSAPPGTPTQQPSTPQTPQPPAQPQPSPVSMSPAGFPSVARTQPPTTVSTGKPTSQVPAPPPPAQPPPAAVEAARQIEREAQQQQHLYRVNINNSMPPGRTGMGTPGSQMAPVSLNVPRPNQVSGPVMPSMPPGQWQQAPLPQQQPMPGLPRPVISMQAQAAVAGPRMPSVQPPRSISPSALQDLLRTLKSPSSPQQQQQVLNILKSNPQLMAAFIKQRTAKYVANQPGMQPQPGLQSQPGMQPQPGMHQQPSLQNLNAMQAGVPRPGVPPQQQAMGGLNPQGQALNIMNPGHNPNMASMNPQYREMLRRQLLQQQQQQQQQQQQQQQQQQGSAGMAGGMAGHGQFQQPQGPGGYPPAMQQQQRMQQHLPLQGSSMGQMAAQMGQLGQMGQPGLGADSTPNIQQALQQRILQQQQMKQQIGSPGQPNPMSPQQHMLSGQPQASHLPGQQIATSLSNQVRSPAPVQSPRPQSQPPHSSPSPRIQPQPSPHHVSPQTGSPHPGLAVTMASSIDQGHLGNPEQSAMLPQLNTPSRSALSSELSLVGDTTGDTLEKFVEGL

B1: HA-tagged human thymine DNA glycosylase, wild type (enzyme, UniProt Q13569 1-410, looked up)
chain: MEAENAGSYSLQQAQAFYTFPFQQLMAEAPNMAVVNEQQMPEEVPAPAPAQEPVQEAPKGRKRKPRTTEPKQPVEPKKPVESKKSGKSAKSKEKQEKITDTFKVKRKVDRFNGVSEAELLTKTLPDILTFNLDIVIIGINPGLMAAYKGHHYPGPGNHFWKCLFMSGLSEVQLNHMDDHTLPGKYGIGFTNMVERTTPGSKDLSSKEFREGGRILVQKLQKYQPRIAVFNGKCIYEIFSKEVFGVKVKNLEFGLQPHKIPDTETLCYVMPSSSARCAQFPRAQDKVHYYIKLKDLRDQLKGIERNMDVQEVQYTFDLQLAQEDAKKMAVKEEKYDPGYEAAYGGAYGENPCSSEPCGFSSNGLIESVELRGESAFSGIPNGQWMTQSFTDQIPSFSNHCGTQEQEEESHA
Take B1: the “fold increase of affinity with RA-activated RARα against TDG alone” value was over 4 fold.

Values taken from publication PMC4411359 (Genomics, Proteomics & Bioinformatics, 2014).
